This note sets out measurements from ChEMBL document CHEMBL1124488 (J Med Chem, 1989).

By UniProt entry, the sequences of proteins in these tests, tags left out.
UniProt P41144, whole entry: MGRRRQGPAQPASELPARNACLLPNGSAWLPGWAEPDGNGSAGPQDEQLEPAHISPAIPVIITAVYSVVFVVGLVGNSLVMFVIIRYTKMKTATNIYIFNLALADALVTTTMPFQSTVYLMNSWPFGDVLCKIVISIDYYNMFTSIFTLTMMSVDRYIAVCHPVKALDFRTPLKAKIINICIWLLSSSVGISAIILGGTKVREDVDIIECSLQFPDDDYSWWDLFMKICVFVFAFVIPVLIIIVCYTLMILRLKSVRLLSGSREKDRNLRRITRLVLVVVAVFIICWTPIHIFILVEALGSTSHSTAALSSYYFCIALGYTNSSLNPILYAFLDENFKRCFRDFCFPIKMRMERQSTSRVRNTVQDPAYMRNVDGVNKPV
UniProt P97266, whole entry: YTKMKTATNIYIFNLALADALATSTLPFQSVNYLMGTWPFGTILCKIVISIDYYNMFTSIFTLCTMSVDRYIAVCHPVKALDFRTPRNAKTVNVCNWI

pIC50: −log10 of the molar value.

For assay [1], the target named is Kappa-type opioid receptor (Cavia porcellus, UniProt P41144). In words: Binding inhibition against opioid receptor kappa of guinea pig was determined using [3H]ethylketocyclazocine.
For another assay, the system named is Mus musculus. Briefly: In vivo evaluation for analgesia 30 minutes after subcutaneous administration in mouse phenylquinone writhing assay. On the technique in general: In writhing tests, fewer writhes than in controls are read as antinociception.
Another assay has as its target Mu-type opioid receptor (Cavia porcellus, UniProt P97266). In words: Inhibitory activity against opioid receptor mu of guinea pig brain using [3H]DAGO radioligand.

Turning to `CN1CCC[C@@]12CCCC[C@@H]2NC(=O)c1ccc(Cl)c(Cl)c1`, the pIC50 (as a rule, the IC50 on a negative log10 scale, so that one unit is a factor of ten) in assay [1] was less than 5.00; at Mu-type opioid receptor it was 6.68. It took a dose of 7.14 mg/kg to reach the 50% effect level in the assay with Mus musculus (ED50). In the case of `CN1CCC[C@@]12CCCC[C@@H]2NC(=O)c1ccc(F)cc1`, the pIC50 (in assay [1]; at Mu-type opioid receptor) was less than 5.00 in each case. Regarding `CC(C)CN(C(=O)c1ccc(Br)cc1)[C@H]1CCCC[C@@]12CCCN2C`, the pIC50 in assay [1] is less than 5.00; at Mu-type opioid receptor, 6.24. Turning to `CN1CCC[C@@]12CCCC[C@@H]2NC(=O)c1ccc(Br)cc1.Cl`, in the assay with Mus musculus, the 50% effect level (ED50) was put at a dose of 3.28 mg/kg. In assay [1], `CN(C(=O)c1ccc(Br)c(Br)c1)[C@H]1CCCC[C@@]12CCCN2C` showed a negative logarithm of the IC50 (pIC50) of 6.98. In the case of `CN1CCC[C@@]12CCCC[C@@H]2NC(=O)c1cccc(Br)c1`, the pIC50 (in assay [1]; on Mu-type opioid receptor) was less than 5.00 each time. Regarding `CN1CCC[C@@]12CCCC[C@@H]2NC(=O)c1ccc(Br)cc1`, the pIC50 in assay [1] was less than 5.00; on Mu-type opioid receptor, 6.22. For `CN1CCC[C@@]12CCCC[C@@H]2NC(=O)c1ccccc1Br`, in that order: less than 5.00 and less than 5.00. For `CN1CCC[C@@]12CCCC[C@@H]2N(CC1CC1)C(=O)c1ccc(Br)cc1`, in that order: 5.55 and 6.66. In turn, `CN(C(=O)c1ccc(C(F)(F)F)cc1)[C@H]1CCCC[C@@]12CCCN2C` gave a negative-log IC50 (pIC50) in assay [1] of 6.17.

As for `CN(C(=O)c1ccc(Br)cc1Cl)[C@H]1CCCC[C@@]12CCCN2C`, in assay [1], the pIC50 is less than 5.00.

Turning to `CN1CCC[C@@]12CCCC[C@@H]2NC(=O)c1ccc(Cl)cc1`, the pIC50 in assay [1] was less than 5.00; on Mu-type opioid receptor it was 6.26. In turn, `Cc1cc(Br)ccc1C(=O)N(C)[C@H]1CCCC[C@@]12CCCN2C` showed a pIC50 in assay [1] of 6.06.

Take `Cc1ccc(C(=O)N(C)[C@H]2CCCC[C@@]23CCCN3C)cc1`: the pIC50 in assay [1] was less than 5.00; at Mu-type opioid receptor, 6.82. `CN(C(=O)c1ccc(Br)cc1)[C@H]1CCCC[C@@]12CCCN2C` gave a pIC50 in assay [1] of 6.17. In the case of `COc1ccc(C(=O)N[C@H]2CCCC[C@@]23CCCN3C)cc1`, the results for the pIC50 (in assay [1]; on Mu-type opioid receptor) were less than 5.00 and 5.66, respectively. Regarding `CN(C(=O)c1ccc(Cl)c(Cl)c1)[C@H]1CCCC[C@@]12CCCN2C`, in assay [1], the negative logarithm of the IC50 (pIC50) is 6.51.
